Experimental data reported in PubChem BioAssay (Tox21).
This is a selection; strong and weak results do not stand in their true shares. Results filed as inconclusive are left out. Activity calls are given as the source filed them. Unless noted, the call rests on the fitted dose curve; in most records, active means well fitted curve in the direction sought with a large enough effect in the repeat runs; inconclusive means weak or mixed curves; inactive means no such curve, though single readings can be large; an effect the other way counts as inactive or inconclusive.

Sequences of proteins named here, by UniProt entry; tags and fusion partners are left off.
UniProt P06401, whole entry: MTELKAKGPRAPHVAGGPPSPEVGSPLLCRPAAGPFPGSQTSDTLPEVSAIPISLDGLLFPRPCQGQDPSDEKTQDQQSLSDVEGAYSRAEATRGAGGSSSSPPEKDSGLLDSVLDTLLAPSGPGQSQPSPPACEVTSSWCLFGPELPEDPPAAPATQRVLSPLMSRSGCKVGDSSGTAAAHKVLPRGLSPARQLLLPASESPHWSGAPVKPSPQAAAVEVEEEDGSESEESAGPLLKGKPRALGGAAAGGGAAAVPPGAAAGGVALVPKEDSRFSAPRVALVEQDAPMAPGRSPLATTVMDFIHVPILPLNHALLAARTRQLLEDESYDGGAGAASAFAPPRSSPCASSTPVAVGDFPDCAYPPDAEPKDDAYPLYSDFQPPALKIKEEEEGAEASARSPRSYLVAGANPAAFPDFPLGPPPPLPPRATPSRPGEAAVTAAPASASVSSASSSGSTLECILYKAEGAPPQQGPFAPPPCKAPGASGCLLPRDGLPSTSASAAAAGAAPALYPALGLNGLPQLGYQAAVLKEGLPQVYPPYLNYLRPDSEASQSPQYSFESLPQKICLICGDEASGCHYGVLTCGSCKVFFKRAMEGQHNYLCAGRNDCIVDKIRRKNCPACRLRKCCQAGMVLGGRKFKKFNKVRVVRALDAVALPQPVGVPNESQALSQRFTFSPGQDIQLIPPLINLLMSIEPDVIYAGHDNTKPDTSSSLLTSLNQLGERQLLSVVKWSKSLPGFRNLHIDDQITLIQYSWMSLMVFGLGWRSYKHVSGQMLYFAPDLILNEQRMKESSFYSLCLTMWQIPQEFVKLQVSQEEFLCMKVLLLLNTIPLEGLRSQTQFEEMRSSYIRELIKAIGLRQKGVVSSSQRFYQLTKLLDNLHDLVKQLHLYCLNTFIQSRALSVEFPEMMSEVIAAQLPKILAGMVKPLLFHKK
UniProt P34981, whole entry: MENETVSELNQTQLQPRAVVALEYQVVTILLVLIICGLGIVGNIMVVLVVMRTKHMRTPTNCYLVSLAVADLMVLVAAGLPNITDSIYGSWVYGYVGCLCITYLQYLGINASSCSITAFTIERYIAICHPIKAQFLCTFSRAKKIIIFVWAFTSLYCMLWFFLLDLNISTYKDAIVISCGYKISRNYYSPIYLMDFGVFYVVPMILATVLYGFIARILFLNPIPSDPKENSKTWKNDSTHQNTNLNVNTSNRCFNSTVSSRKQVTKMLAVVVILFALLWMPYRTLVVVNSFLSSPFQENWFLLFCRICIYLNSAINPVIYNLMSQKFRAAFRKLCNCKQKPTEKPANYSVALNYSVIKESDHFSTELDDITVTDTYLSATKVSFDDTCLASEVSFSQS

Legend:
[1] = qHTS assay to identify small molecule agonists of the estrogen receptor alpha (ER-alpha) signaling pathway in the presence of an antagonist - cell viability counter screen (AID 1259386); details: VM7Luc4E2 viability, CellTiter-Fluor fluorescence, 22 h; at 92.4 µM (top of the series);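 further: cells exposed to compounds for 22 h at 37 °C before the viability read; nearly all actives have a fitted effect of over 30% in size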
Excerpt: (§1) National Center for Advancing Translational Sciences [NCATS]
(§2) NIH Chemical Genomics Center [NCGC]
(§3) U.S. Environmental Protection Agency [EPA]
(§4) National Institutes of Environmental Health Sciences [NIEHS]
(§5) National Toxicology Program [NTP]
(§6) U.S. Food and Drug Administration [FDA]
Estrogen receptor (ER), a member of nuclear hormone receptor plays an important role in development, metabolic homeostasis and reproduction. Two subtypes of ER, ER-alpha and ER-beta, have similar expression patterns with some uniqueness in both types. Endocrine disrupting chemicals (EDCs) and their interactions with steroid hormone receptors like ER causes disruption of normal endocrine function. Therefore, it is important to understand the effect of environmental chemicals in ER signaling pathway. For identifying ER agonists, VM7Luc4E2 cell line has been used in the current assay.
VM7Luc4E2 cell line (provided by Denison MS, University of California) endogenously expresses full-length ER-alpha and is stably transfected with a plasmid containing four estrogen responsive elements (ERE) upstream of a luciferase reporter gene. This current screening for measuring luciferase reporter gene activity using VM7Luc4E2 cells against Tox21 10K library collection is a confirmation study on agonist mode screening in presence of ER-antagonist (ICI-182,780) at 10.0nM final concentration. The cytotoxicity of the compounds was tested in parallel by measuring the cell viability using CellTiter-Fluor assay system (Promega, Madison, WI) in the same wells.
(§7) Tox21 Assay Protocol Summary:
VM7Luc4E2 cells were cultured in phenol red free assay medium containing 10% charcoal stripped FBS for 5 days prior to the assay. […] After 21hr incubation at 37C, 1uL/well CellTiter-Fluor reagent (Promega Corporation, Madison, WI) was added to each well using FRD and after 1hr incubation at 37C and 5% CO2, the fluorescence signal was measured on ViewLux plate reader (PerkinElmer, Shelton, CT).

[2] = molecular target: Progesterone receptor (Homo sapiens) (UniProt P06401); experiment: qHTS assay to identify small molecule agonists of the progesterone receptor (PR) signaling pathway (AID 1346784; calls by dose curve; further: nearly all actives have a fitted effect of over 30% in size); details: PR-UAS-bla HEK293T, beta-lactamase FRET ratio, 16 h; at 92.4 µM (top of the series)
In short: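 PR-UAS-bla HEK 293T cells (beta-lactamase reporter under UAS) in 2% charcoal-stripped FBS, dosed with 23 nL compound after 6 hr, incubated 16hr at 37C. LiveBLAzer B/G FRET substrate added, fluorescence read after 2 hours.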

[3] = qHTS assay to identify small molecule antagonists of the progesterone receptor (PR) signaling pathway - cell viability counter screen (AID 1346798); details: PR-UAS-bla HEK293T viability, CellTiter-Glo luminescence, 16 h; at 92.4 µM (top of the series); further: nearly all actives have a fitted effect of over 50% in size
In short: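 PR-UAS-bla HEK293T cells, 3,000/well in 2% charcoal-stripped FBS medium, dosed with compounds plus R5020 agonist and incubated 16 h at 37C. Viability then measured in the same wells by CellTiter-Glo luminescence after 30 min at RT.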

[4] = qHTS assay to identify small molecule agonists of the progesterone receptor (PR) signaling pathway - cell viability counter screen (AID 1346799; calls by dose curve; further: nearly all actives have a fitted effect of over 45% in size); details: PR-UAS-bla HEK293T viability, CellTiter-Glo luminescence, 16 h; at 92.4 µM (top of the series)
Excerpt: as §1, §2, §3, §4, §5, §6
Progesterone receptor (PR), a nuclear hormone receptor, plays an important role in development, metabolic homeostasis and reproduction. It is activated by the steroid hormone progesterone. Endocrine disrupting chemicals (EDCs) and their interactions with steroid hormone receptors like PR causes disruption of normal endocrine function. To identify the compounds that stimulate PR signaling, a PR-UAS-bla GripTite cell line i.e. PR-UAS-bla HEK293T (Invitrogen, Carlsbad, CA, USA) containing a beta-lactamase reporter gene under the control of an UAS response element was used to screen Tox21 10K compound library. The cytotoxicity of the Tox21 compound library against the PR-bla cell line was tested in parallel by measuring the cell viability using CellTiter-Glo assay in the same wells.
as §7
PR-UAS-bla HEK293T cells were dispensed at 3,000 cells/5 uL of assay medium containing 2% charcoal stripped FBS per well into black wall/clear-bottom 1536-well plates using a Multidrop Combi (ThermoFisher Scientific, Waltham, MA) dispenser. After the assay plates were incubated at a 37C and 5% CO2 for 6 hr, 23 nL of compounds dissolved in DMSO, positive controls or DMSO only was transferred to the assay plate by a Pintool station (Kalypsys, San Diego, CA). […] Then 1 uL of LiveBLAzer B/G FRET substrate was added using a Flying Reagent Dispenser (FRD, Aurora Discovery, San Diego, CA), the plates were incubated at room temperature for 2 hours, and fluorescence intensity was measured by an Envision plate reader (PerkinElmer, Shelton, CT). For cell viability readout that measures cytotoxicity, 4 uL/well of CellTiter-Glo reagent was added into the assay plates using a FRD. After 30 min incubation at room temperature, the luminescence intensity in the plates was measured using a ViewLux (PerkinElmer) plate reader.

[5] = qHTS assay to identify small molecule antagonists of the TGF-beta/Smad signaling pathway - cell viability counter screen (AID 1346824); details: SBE-bla HEK293T viability, CellTiter-Glo luminescence; at 76.8 µM (top of the series); further: nearly all actives have a fitted effect of over 50% in size
In short: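 SBE-bla HEK 293T cells were plated overnight at 37 C, then given compounds in DMSO plus TGF-beta1 (added as 0.25 ng/mL solution) for 5 hr. After the bla read, CellTiter-Glo was added to the same wells and luminescence read after 30 min at room temperature.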

[6] = qHTS assay to identify small molecule agonists of the TGF-beta/Smad signaling pathway - cell viability counter screen (AID 1346829); details: SBE-bla HEK293T viability, CellTiter-Glo luminescence, 5 h; at 76.8 µM (top of the series); further: top concentration of the series differs between compounds; nearly all actives have a fitted effect of over 45% in size
In short: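 After overnight seating at 37 C and 5% CO2, reporter cells got compounds for 5 hr and FRET substrate for 2 hr; cell viability then came from CellTiter-Glo luminescence.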

[7] = qHTS assay to identify small molecule agonists of the TGF-beta/Smad signaling pathway (AID 1346859; active means well fitted activation curve with a large enough effect in the signal ratio in the repeat runs, not every such curve was filed as active; the % refers to the signal ratio); details: SBE-bla HEK293T, TGF-beta/Smad beta-lactamase reporter, 5 h
Excerpt: U.S. Tox21 Program National Center for Advancing Translational Sciences [NCATS] NIH Chemical Genomics Center [NCGC] U.S. Environmental Protection Agency [EPA] National Institutes of Environmental Health Sciences [NIEHS] National Toxicology Program [NTP] U.S. Food and Drug Administration [FDA] Tox21 Assay Overview: Transforming growth factor beta (TGF-beta) superfamily consists of a large number of structurally related dimeric proteins that act as hormones or local mediators in regulating a wide range of biological functions. This superfamily includes TGF-betas themselves, the bone morphogenetic proteins (BMPs) and the activins. These ligands induce oligomerization of serine/threonine receptor kinases and phosphorylate the cytoplasmic signaling molecules of Smad protein family. CellSensor SBE-bla HEK 293T cell line (Life Technologies, Carlsbad, CA), responsive to TGF-beta was used to screen Tox21 10K compound library for identification of agonists/antagonists of the Smad signaling pathway. This cell line contains a beta-lactamase reporter gene under control of the Smad binding element (SBE) stably integrated into HEK 293T cells.
Tox21 Assay Protocol Summary: SBE-bla HEK 293T cells were dispensed at 4,000/well in 6 uL of assay medium into black wall/clear-bottom 1536-well plates using a Multidrop Combi (ThermoFisher Scientific, Waltham, MA) dispenser. After the assay plates were incubated at 37 C and 5% CO2 for an overnight, 23 nL of compounds dissolved in DMSO, positive controls or DMSO only was transferred to the assay plate by a Pintool station (Kalypsys, San Diego, CA). The assay plates were incubated at 37 C and 5% CO2 for 5 hr. One uL of LiveBLAzer B/G FRET substrate (Life Technologies) was added using a Flying Reagent Dispenser (Aurora Discovery, San Diego, CA) and the plates were incubated at room temperature for 2 hr. Fluorescence intensity (405 nm excitation, 460 nm and 530 nm emissions) was measured using an Envision plate reader (PerkinElmer, Shelton, CT).

[8] = molecular target: Thyrotropin-releasing hormone receptor (Homo sapiens) (UniProt P34981); experiment: qHTS assay to identify small molecule antagonists of the thyrotropin-releasing hormone receptor (TRHR) signaling pathway (AID 1346877; active means well fitted inhibition curve with a large enough effect in the repeat runs, not every such curve was filed as active); details: TRHR-HEK293, TRH-induced calcium fluorescence, antagonist mode
[9] = molecular target: Thyrotropin-releasing hormone receptor (Homo sapiens) (UniProt P34981); experiment: qHTS assay to identify small molecule agonists of the thyrotropin-releasing hormone receptor (TRHR) signaling pathway (AID 1346891; calls by dose curve;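 further: HEK293 cells expressing TRHR with calcium dye readout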); details: TRHR-HEK293 calcium fluorescence, agonist mode
[10] = molecular target: Progesterone receptor (Homo sapiens) (UniProt P06401); experiment: qHTS assay to identify small molecule antagonists of the progesterone receptor (PR) signaling pathway (AID 1346795; active means well fitted inhibition curve with a large enough effect in the signal ratio in the repeat runs, not every such curve was filed as active; the % refers to the signal ratio); details: PR-UAS-bla HEK293T, beta-lactamase FRET ratio, 16 h; at 92.4 µM (top of the series)
Excerpt: as §1, §2, §3, §4, §5, §6
Progesterone receptor (PR), a nuclear hormone receptor, plays an important role in development, metabolic homeostasis and reproduction. […] Endocrine disrupting chemicals (EDCs) and their interactions with steroid hormone receptors like PR causes disruption of normal endocrine function. To identify the compounds that inhibit PR signaling, a PR-UAS-bla GripTite cell line i.e. PR-UAS-bla HEK293T (Invitrogen, Carlsbad, CA, USA) containing a beta-lactamase reporter gene under the control of an Upstream Activator Sequence (UAS) was used to screen Tox21 10K compound library.
as §7
PR-UAS-bla HEK293T cells were dispensed at 3,000 cells/4 uL of assay medium containing 2% charcoal stripped FBS per well into black wall/clear-bottom 1536-well plates using a Multidrop Combi (ThermoFisher Scientific, Waltham, MA) dispenser. […] After the plates were incubated at room temperature for 2 hours, fluorescence intensity was measured by an Envision plate reader (PerkinElmer, Shelton, CT).
On the % scale 0 is the no-effect control and ±100 the full control effect.

CCC(=O)N(c1ccccc1)C1(COC)CCN(CCc2cccs2)CC1
inactive: activity change, negative = cytotoxicity [1] -8% | activation [2] -3.31% | activity change, negative = cytotoxicity [3] 8.22% | activity change, negative = cytotoxicity [4] -2.08% | viability change, negative = cytotoxic [5] -1.55% | activity change, negative = cytotoxicity [6] -1.11% | activation ([7]; at 76.8 µM (top of the series)) -6.74% | activity, negative = inhibition ([8]; at 51.3 µM (top of the series)) -1.04% | activation ([9]; at 57.6 µM (top of the series)) 0.0975%

CCC(=O)N(c1ccccc1)C1(COC)CCN(CCn2nnn(CC)c2=O)CC1
inactive: activity change, negative = cytotoxicity [1] -3.42% | activation [2] -2.9% | activity change, negative = inhibition [10] -2.75% | activity change, negative = cytotoxicity [3] -23.8% | activity change, negative = cytotoxicity [4] -22% | viability change, negative = cytotoxic [5] 4.95% | activity change, negative = cytotoxicity [6] 1.01% | activation ([7]; at 76.8 µM (top of the series)) 3.09% | activity, negative = inhibition ([8]; at 51.3 µM (top of the series)) 5.65% | activation ([9]; at 57.6 µM (top of the series)) -0.0504%

CN(CCCl)CCCl
inactive: activation ([7]; at 35.3 µM (top of the series)) -0.69% | activation ([7]; at 76.8 µM (top of the series)) 1.84% | activity, negative = inhibition ([8]; at 23.6 µM (top of the series)) -4.38% | activity, negative = inhibition ([8]; at 51.3 µM (top of the series)) -1.32% | activation ([9]; at 26.5 µM (top of the series)) -0.18% | activation ([9]; at 57.6 µM (top of the series)) -0.385%

O=[N+]([O-])C(Cl)(Cl)Cl
inactive: activity change, negative = cytotoxicity [1] 0.532% | activation [2] 1.66% | activity change, negative = cytotoxicity [4] -0.388% | viability change, negative = cytotoxic [5] -20% | activity change, negative = cytotoxicity [6] -20.9% | activation ([7]; at 76.8 µM (top of the series)) -5.21% | activity, negative = inhibition ([8]; at 51.3 µM (top of the series)) -0.842% | activation ([9]; at 57.6 µM (top of the series)) 0.0162%
